By UniProt entry, the sequences of proteins in these tests, tags left out. Residues count along the entry.
UniProt P23458, 850-1154: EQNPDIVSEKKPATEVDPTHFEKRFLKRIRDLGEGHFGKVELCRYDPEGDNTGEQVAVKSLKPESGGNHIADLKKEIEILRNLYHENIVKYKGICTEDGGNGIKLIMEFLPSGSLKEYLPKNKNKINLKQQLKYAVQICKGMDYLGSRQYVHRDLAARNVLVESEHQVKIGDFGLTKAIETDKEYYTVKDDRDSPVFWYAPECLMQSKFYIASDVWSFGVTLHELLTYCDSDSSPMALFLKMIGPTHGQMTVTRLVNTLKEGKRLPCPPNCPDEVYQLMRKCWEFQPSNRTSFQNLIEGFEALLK

According to patent US10206907B2, “Compounds useful for the treatment of degenerative and inflammatory diseases” (GALAPAGOS NV, priority 2008, dated 2019):

Tests used:
[1] = molecular target: Recombinant human JAK1 catalytic domain (Homo sapiens (Human), UniProt P23458); test: JAK1 inhibition assay; assay type: biochemical; details: semi-quantitative score
[2] = system: JAK-STAT signalling in HeLa cells; test: JAK-STAT signalling assay (OSM-triggered pSTAT1(2)-luciferase reporter in HeLa cells); assay type: cell-based; details: Homo sapiens, read-out: STAT signalling EC50

## O=C(Nc1nc2cccc(-c3ccc(CN4CCOCC4)cc3)n2n1)C1CC1 [Compound 18, N-(5-(4-(morpholinomethyl)phenyl)-[1,2,4]triazolo[1,5-a]pyridin-2-yl)cyclopropanecarboxamide]
[1]
  IC50: < 0.1 µM

## O=C(Nc1nc2cccc(-c3ccc(NS(=O)(=O)C4CC4)cc3)n2n1)C1CC1 [Compound 59, N-(5-(4-(cyclopropanesulfonamido)phenyl)-[1,2,4]triazolo[1,5-a]pyridin-2-yl)cyclopropanecarboxamide]
[2]
  EC50: > 1 µM

## NC(=O)c1cccc(NCc2ccc(-c3cccc4nc(NC(=O)C5CC5)nn34)cc2)c1 [Compound 228, 3-{4-[2-(Cyclopropanecarbonyl-amino)-[1,2,4]triazolo[1,5-a]pyridin-5-yl]-benzylamino}-benzamide]
[2]
  EC50: 0.501 to 1 µM
